{"source": "patent US10137070B2", "about": "“Composition including ionone or salt thereof as active ingredient and having effect of enhancing skin moisturizing, exfoliating skin, improving skin elasticity, inhibiting erythema, improving skin wrinkles, or alleviating skin photoaging” (Industry-Academic Cooperation Foundation, Yonsei University, priority 2016, dated 2018)", "origin": "cited, not measured here", "tested_on": "rats", "conditions": "72 rats, orally 3 mg/mouse dissolved in oil for 7 weeks every two days; cited from earlier work"}
{"substance": "ionone", "values": [{"measurement": "toxicity after oral administration", "result": "no toxicity was shown"}]}
